Rows were chosen to be rich in hits. Some 3.7% of all compounds tested hit in one or more screens of this group.
A549 viability: kills or reduces viability of A549 cells in Nrf2 counter-screen | Potency, µM (titrated, usually from 46 µM), for inactives: at the highest dose activity change, negative = cytotoxicity, most hits filed as inhibitors | 390,000 compounds, 0.16% hits | AID 504648 | A549 ARE-Fluc cells, CellTiter-Fluor viability, 18-24 h; further: potency means the concentration at half of the fitted maximal effect; on the % scale 0 is the no-effect control and ±100 the full control effect
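Cytotoxicity counterscreen: CellTiter-Fluor fluorescence was measured in A549 ARE_Fluc cells after 18-24 h of compound exposure in a concentration series. The subsequent BugLite luminescent read reports ARE-luciferase activity.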
p53 reactivator: mutant p53 re-activation in reporter cells. H1299 p53-A138V BP100-luciferase reporter, luminescence, 24 h. Potency, µM (doses to about 92.2 µM), for inactives: top-dose activity change, positive = activation, hits mostly activators. 320,000 compounds, 0.063% hits. AID 504706; further: potency means the concentration at half of the fitted maximal effect; % of control where 0% means no effect; nearly all actives have a fitted effect of over 45% in size
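p53-null H1299 cells stably carrying temperature-sensitive p53-A138V and a BP100-luciferase reporter were pinned with compounds (4-point, 1:5 series) and held 24 hrs at 37 deg C. Luminescence was read 10 min after detection reagent.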
miR-21 reporter: raises the signal of a miR-21 reporter | Potency, µM (doses to about 38.3 µM), for inactives: top-dose reporter change, positive = more light | HeLa miR-21 FLuc reporter, luciferase, 48 h | AID 2288 | 340,000 tested, under 10 active; active = well fitted rising curve with a large enough effect; inconclusive = small, poorly fitted or top-dose-only effect; inactive = no such curve, though single readings can be large or run the other way;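 also: % of control where 0% means no effect; miR-21 action dims this reporter so a rising signal means less miR-21 action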
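HeLa miR-21-FLuc reporter line, endogenous miR-21; 2000 cells/well in DMEM/10% FBS; compound titration up to ~40uM final, 48 h, 37 degree Celsius; luciferase detection reagent, 15 min lysis, CCD luminescence.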
Nrf2 block: Nrf2 pathway inhibition; 360,000 compounds, 2.1% hits; Potency, µM (series often up to 46 µM), inactives show at the highest dose activity change, negative = inhibition, hits mostly inhibitors; A549 ARE-Fluc reporter, luciferase luminescence, 18-24 h; AID 504444; further: potency means the concentration at half of the fitted maximal effect; on the % scale 0 is the no-effect control and ±100 the full control effect; nearly all actives have a fitted effect of over 60% in size
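In this cell-based qHTS, ARE-driven firefly luciferase in A549 cells reports Nrf2 activity; the luminescent signal after BugLite lysis is the measured value, with a prior CellTiter-Fluor read for cell health.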
Nrf2 ARE act: activators of Nrf2 (ARE) signaling; AREc32 ARE-luciferase reporter (MCF7-derived line), luminescence, 24 h; Potency, µM (doses to about 46.1 µM), inactives show top-dose activation, usual class: activators; 410,000 compounds, 0.31% hits; further: potency means the concentration at half of the fitted maximal effect; % of control where 0% means no effect; nearly all actives have a fitted effect of over 65% in size
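ARE-driven firefly luciferase activity in AREc32 cells measured after a 24 hr compound exposure at 37 deg C, using Steady-Glo reagent and a 30 min room-temperature hold.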
ClpP mod: qHTS Assay for Activators of ClpP; purified B. subtilis ClpP, FRET peptide cleavage, 20 min; Potency, µM (highest dose often 57.5 µM), inactives show at the highest dose activity change, negative = active; 340,000 compounds, 1.9% hits; AID 651965, 2013; active means well fitted falling curve with a large enough effect; inconclusive means small, poorly fitted or top-dose-only effect; inactive means no such curve, though single readings can be large or run the other way; further: potency means the concentration at half of the fitted maximal effect; the source files actives as falling curves though it sought activators and does not explain the sign; nearly all actives have a fitted effect of over 65% in size
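ClpP 10 microg/mL final, pH 8 Tris/KCl buffer with BSA, glycerol, Tween-20; compound pinned in; FRET-FV substrate; RT 20 min; Ex320/Em430; ΔFRET vs ADEP 5.8 microM, DMSO, no enzyme.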
Starred values were filed as active, the others as inactive; [ ] = dose if it differs, or a comment. Unless noted, the call rests on the fitted dose curve; in most records, active means well fitted curve in the direction sought with a large enough effect; inconclusive means small, poorly fitted or top-dose-only effect, or another doubt; inactive means no such curve, though single readings can be large; an effect the other way counts as inactive or inconclusive.

Screening COc1ccc(-c2nc(-c3ccccc3)c(-c3cc([N+](=O)[O-])ccc3C)[nH]2)cc1O returned A549 viability -22%, p53 reactivator 1%, miR-21 reporter 22%, Nrf2 block 1%, Nrf2 ARE act 4% and ClpP mod -3%.
For C=CC(=O)Nc1cccc(CN2C(=O)N(c3cc(OC)cc(OC)c3)Cc3cnc(NCCCCN(CC)CC)nc32)c1 the results were A549 viability 6.5µM*, Nrf2 block -8%, Nrf2 ARE act 6% and ClpP mod -6%.
Screening N#C/C(=C\c1cccs1)c1nc2ccccc2[nH]1 returned A549 viability -15%, p53 reactivator inconclusive, miR-21 reporter -49%, Nrf2 block 27%, Nrf2 ARE act 23% and ClpP mod -2%.
For N#C/C(=C\c1ccc(OC(=O)c2cccs2)cc1)c1nc2ccccc2[nH]1 the results were A549 viability -2%, p53 reactivator -24%, miR-21 reporter -60%, Nrf2 block 14%, Nrf2 ARE act 10% and ClpP mod 28µM*.
O=C(/C=C/c1ccccc1)NC(=O)c1ccccc1O was read as A549 viability 12%, p53 reactivator 28µM*, miR-21 reporter -59%, Nrf2 block 25%, Nrf2 ARE act inconclusive and ClpP mod 0%.
Screening COc1cc(/C=C/C(=O)NC(=O)c2ccccc2O)ccc1O returned A549 viability -17%, p53 reactivator -10%, miR-21 reporter -2%, Nrf2 block inconclusive, Nrf2 ARE act inconclusive and ClpP mod -2%.
Screening Cc1cc(OC(C)C(=O)N2CCC(c3nc4ccccc4o3)CC2)ccc1Cl (stereo not given) returned A549 viability -24%, miR-21 reporter 12%, Nrf2 block inconclusive, Nrf2 ARE act 0% and ClpP mod -2%.
Screening Cc1sc2ncnc(-n3cnc4ccccc43)c2c1C returned A549 viability -14%[1.84 µM], p53 reactivator -2%, miR-21 reporter -4%, Nrf2 block inconclusive, Nrf2 ARE act 0% and ClpP mod 28µM*.
Screening Cc1ccc(-c2csc3ncnc(-n4cnc5ccccc54)c23)cc1 returned A549 viability -2%, p53 reactivator 18%, miR-21 reporter 21%, Nrf2 block 13%, Nrf2 ARE act 0% and ClpP mod 28µM*.
`CCCOc1nc2c(c(=O)n(C)c(=O)n2C)n1C` gave A549 viability -4%, p53 reactivator 5%, miR-21 reporter 10%, Nrf2 block -23% and Nrf2 ARE act 0%.
CCCOc1nc2c(c(=O)n(C)c(=O)n2C)n1Cc1cccc2ccccc12 was read as A549 viability -11%, p53 reactivator 6%, miR-21 reporter -1%, Nrf2 block 18µM*, Nrf2 ARE act 0% and ClpP mod 0%.
For Cn1c(=O)c2sccc2n2c(CCCC(=O)Nc3ccc(F)cc3F)nnc12 the results were A549 viability 1%, p53 reactivator 7%, miR-21 reporter 0%, Nrf2 block -17%, Nrf2 ARE act 0% and ClpP mod -12%.
O=C1C=CC(n2cc(F)c(=O)[nH]c2=O)O1 (stereo not given) was read as Nrf2 ARE act 25µM* and ClpP mod -2%.
Screening O=c1[nH]c(=O)n([C@H]2C[C@@H](O)[C@@H](CO)O2)cc1F returned ClpP mod 0%.
For CCc1cccc(CC)c1NC(=O)Cn1nnc2sc(-c3ccccc3)cc2c1=O the results were A549 viability 1%, miR-21 reporter -1%, Nrf2 block 10%, Nrf2 ARE act 1% and ClpP mod -4%.
Screening Cc1ccc(OC(C)C(=O)N(C)Cc2ccccc2)c([N+](=O)[O-])n1 (stereo not given) returned A549 viability 5%, p53 reactivator 0%, miR-21 reporter -5%, Nrf2 block -14%, Nrf2 ARE act 0% and ClpP mod 93%.
COc1ccc2[nH]c3c(=O)n(CCc4ccccc4)cnc3c2c1 was read as A549 viability -3%, p53 reactivator 4%, miR-21 reporter -11%, Nrf2 block 7%, Nrf2 ARE act 0% and ClpP mod 4%.
Screening CCC1CCCN1Cn1cnc2c([nH]c3ccccc32)c1=O (stereo not given) returned A549 viability -1%, p53 reactivator -9%, miR-21 reporter -5%, Nrf2 block 1%, Nrf2 ARE act 0% and ClpP mod 25µM*.
Screening CCN1CCCC1Cn1cnc2c([nH]c3cccc(Cl)c32)c1=O (stereo not given) returned A549 viability -22%, p53 reactivator -3%, miR-21 reporter -7%, Nrf2 ARE act 2% and ClpP mod 32µM*.
For O=c1c2[nH]c3ccccc3c2ncn1Cc1ccccn1 the results were A549 viability -4%, p53 reactivator -7%, miR-21 reporter -3%, Nrf2 block -6%, Nrf2 ARE act 0% and ClpP mod 28µM*.

Three structures already listed, ordered by molecular weight, largest number first:
For CCc1cccc(CC)c1NC(=O)Cn1nnc2sc(-c3ccccc3)cc2c1=O the results were A549 viability 1%, miR-21 reporter -1%, Nrf2 block 10%, Nrf2 ARE act 1% and ClpP mod -4%.
Screening Cc1cc(OC(C)C(=O)N2CCC(c3nc4ccccc4o3)CC2)ccc1Cl (stereo not given) returned A549 viability -24%, miR-21 reporter 12%, Nrf2 block inconclusive, Nrf2 ARE act 0% and ClpP mod -2%.
Screening COc1cc(/C=C/C(=O)NC(=O)c2ccccc2O)ccc1O returned A549 viability -17%, p53 reactivator -10%, miR-21 reporter -2%, Nrf2 block inconclusive, Nrf2 ARE act inconclusive and ClpP mod -2%.

Continuation:
`CCC1CCCN1Cn1cnc2c([nH]c3ccc(OC)cc32)c1=O` (stereo not given) gave A549 viability 14%, p53 reactivator -8%, miR-21 reporter -15%, Nrf2 block 12%, Nrf2 ARE act 0% and ClpP mod 18µM*.
CCN1CCCC1Cn1cnc2c([nH]c3ccc(Cl)cc32)c1=O (stereo not given) was read as A549 viability -4%, p53 reactivator -5%, miR-21 reporter -7%, Nrf2 ARE act -1% and ClpP mod -23%.
`CC(=O)N1CCc2cc(Br)cc(S(=O)(=O)N3CCN(c4cccc(C)c4)C(C)C3)c21` (stereo not given) gave A549 viability 1%, miR-21 reporter 21%, Nrf2 block -28%[9.27 µM], Nrf2 ARE act -2% and ClpP mod 1%.
Screening Cc1ccc(Cl)cc1-n1ncc2c(Nc3cccc(C)c3C)ncnc21 returned A549 viability -22%, miR-21 reporter 20%, Nrf2 ARE act 4% and ClpP mod -21%.
COc1ccc(-c2noc3c2-c2nc(-c4ccccc4C)sc2CC3)cc1 was read as A549 viability -5%, Nrf2 block inconclusive, Nrf2 ARE act 4% and ClpP mod 25µM*.
Cc1ccccc1-c1nc2c(s1)CCc1onc(-c3ccc(Cl)cc3)c1-2 was read as A549 viability 2%, p53 reactivator 8%, Nrf2 block -2%, Nrf2 ARE act 1% and ClpP mod inconclusive.
